Target: human ABCB4 (Homo sapiens, UniProt P21439)
Assay: Inhibition of ABCB4-mediated digoxin transport, bidirectional assay in Abcb1KO-MDCKII-ABCB4 cells
Format: cell-based
Design: expressed in transfected cells; host or cells: Abcb1KO-MDCKII (canine kidney, Abcb1 knockout), lentiviral transduction, single clone
Settings: digoxin 1 µM probe

By UniProt entry, the sequences of proteins in these tests, tags left out. Residues count along the entry.
UniProt P21439, 1-1279 isoform P21439-2: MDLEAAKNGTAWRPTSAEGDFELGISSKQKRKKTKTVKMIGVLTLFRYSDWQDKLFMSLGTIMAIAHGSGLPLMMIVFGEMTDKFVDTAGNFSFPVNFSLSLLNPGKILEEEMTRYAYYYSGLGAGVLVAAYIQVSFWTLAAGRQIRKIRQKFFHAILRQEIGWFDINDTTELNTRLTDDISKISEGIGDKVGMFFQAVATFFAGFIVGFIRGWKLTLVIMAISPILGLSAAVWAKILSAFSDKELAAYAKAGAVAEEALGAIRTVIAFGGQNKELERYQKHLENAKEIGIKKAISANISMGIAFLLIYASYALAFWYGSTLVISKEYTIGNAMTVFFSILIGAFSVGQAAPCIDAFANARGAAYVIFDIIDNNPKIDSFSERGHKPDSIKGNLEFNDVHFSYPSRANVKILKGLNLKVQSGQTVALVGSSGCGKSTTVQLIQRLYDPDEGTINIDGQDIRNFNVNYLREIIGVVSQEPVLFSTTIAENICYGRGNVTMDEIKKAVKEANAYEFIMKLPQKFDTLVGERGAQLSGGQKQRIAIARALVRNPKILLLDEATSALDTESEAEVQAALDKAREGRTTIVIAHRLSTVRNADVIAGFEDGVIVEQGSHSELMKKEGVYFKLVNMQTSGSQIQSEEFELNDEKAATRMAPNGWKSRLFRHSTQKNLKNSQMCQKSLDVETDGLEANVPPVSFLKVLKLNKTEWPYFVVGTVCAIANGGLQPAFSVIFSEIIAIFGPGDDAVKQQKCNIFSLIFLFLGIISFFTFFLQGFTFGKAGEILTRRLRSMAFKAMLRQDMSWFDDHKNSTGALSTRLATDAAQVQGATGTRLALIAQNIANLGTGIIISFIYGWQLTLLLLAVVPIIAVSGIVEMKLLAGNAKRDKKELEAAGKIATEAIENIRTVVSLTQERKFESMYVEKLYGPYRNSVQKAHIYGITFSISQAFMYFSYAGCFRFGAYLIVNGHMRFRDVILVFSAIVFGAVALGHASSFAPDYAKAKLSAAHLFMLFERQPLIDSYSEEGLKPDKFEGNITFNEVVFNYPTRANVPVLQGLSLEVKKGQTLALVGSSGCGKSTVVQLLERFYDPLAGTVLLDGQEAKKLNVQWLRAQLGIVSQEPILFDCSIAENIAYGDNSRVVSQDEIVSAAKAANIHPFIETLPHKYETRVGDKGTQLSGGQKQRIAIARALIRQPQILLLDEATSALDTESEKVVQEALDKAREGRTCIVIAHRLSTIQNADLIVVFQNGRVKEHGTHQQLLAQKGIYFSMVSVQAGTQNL

Effect on ABCB4-mediated digoxin transport, in words: no effect
SMILES: NC(=O)N1c2ccccc2C=Cc2ccccc21 [carbamazepine]

From article PMC10003010, “A Unique In Vitro Assay to Investigate ABCB4 Transport Function” (International Journal of Molecular Sciences, 2023)
